Values quoted from earlier work in patent US9963485B2, “Cycloheptapeptide agents for treatment of cancer and obesity diseases” (Hong Kong Baptist University, priority 2012, dated 2018).
pIC50: −log10 of the molar value.

System: murine P388 leukemia cells
Settings: read-out: Cytotoxic activity against murine P388 leukemia cells, IC50; literature (Feng et al. 2003); cited from earlier work

**Q.** With Ternatin as the substance, how does the pIC50 read?
**A.** 5.79
